{"source": "paper PMC5469451", "about": "“Identification of compounds that suppress Toxoplasma gondii tachyzoites and bradyzoites” (PLoS ONE, 2017)", "key": {"HFF cells": {"tested_on": "HFF cells", "assay": "Host cell cytotoxicity assay (Cell-Titer Glo), HFF cells", "assay_type": "cell-based, human", "settings": "48 h", "description": "(§1) Vero cells and HFF cells were both used as host cells because both cell types were used for the parasite screening. After incubation for 48 h in DMEM supplemented with 5% FBS, L-glutamine, penicillin, and streptomycin, cell viabilities were measured by using a Cell-Titer Glo kit (Promega) following the manufacturer’s instructions. Control wells were treated with DMSO alone in culture medium to calculate the 100% viability for each cell type."}, "Vero cells": {"tested_on": "Vero cells", "assay": "Host cell cytotoxicity assay (Cell-Titer Glo), Vero cells", "assay_type": "cell-based", "settings": "10 μM, 48 h, DMSO = 100%", "description": "as §1, with “Host cells were treated with compounds at the same concentration used for screening (i.e., 0.5% DMSO and 10 μM compound). Vero” for “Vero”"}}, "data": [{"sequence": "PENITREM A", "values": [{"measurement": "Host cell viability (%)", "setting": "HFF cells; 2.5 μM", "value": 102, "unit": "%"}, {"measurement": "Host cell viability (%)", "setting": "HFF cells; 25 μM, compared with DMSO", "value": 34, "unit": "%"}, {"measurement": "Host Viability (%)", "setting": "Vero cells", "value": 79, "unit": "%"}]}]}
